Results on 1 substance are retold here after PMC11295983 (ESMO Open, 2024).

The subject of the series is patients with advanced solid tumor malignancies. In words: Safety and tolerability. The series is classed as in vivo, human. To be noted: Total (all pemigatinib doses). A digest of the protocol: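 Patients are ≥18 years with solid tumors that progressed after ≥1 prior line. They self-administer oral pemigatinib 9, 13.5 or 20 mg q.d. on 21-day cycles, continuous or intermittent, combined with chemotherapy, trastuzumab or anti-PD-1 antibody until progression or toxicity. Interruption and dose adjustment are allowed. AE frequency, duration and severity are summarized descriptively for patients receiving ≥1 dose.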

For pemigatinib + retifanlimab [Pemi/reti], the “Dose interruptions because of TEAEs, patients” value is on record as 88.9%.
